The text below walks through data of patent publication US8865653B2, “Method of treatment for immunogenic treatment resistant cancer” (Institut Gustave Roussy, priority 2010, dated 2014).

For this assay, the system named is MCA205 cells. Briefly: Anticancer vaccination with doxorubicin-treated MCA205 ± HMGB1 siRNA ± DEN S. Particulars: with or without addition of exogenous DEN S.

The structures appear in SMILES notation.

As for `COc1cccc2c1C(=O)c1c(O)c3c(c(O)c1C2=O)C[C@@](O)(C(=O)CO)C[C@@H]3O[C@H]1C[C@H](N)[C@H](O)[C@H](C)O1` [DX, doxorubicin], the “tumor progression after vaccine of doxorubicin-treated, HMGB1-expressing cells” value was “efficient in reducing tumor progression”.
